# Results published in paper PMC10266737 (Science Advances, 2023).
# B1: GST-SMYD2 (enzyme)
# chain: MRAEGLGGLERFCSPGKGRGLRALQPFQVGDLLFSCPAYAYVLTVNERGNHCEYCFTRKEGLSKCGRCKQAFYCNVECQKEDWPMHKLECSPMVVFGENWNPSETVRLTARILAKQKIHPERTPSEKLLAVKEFESHLDKLDNEKKDLIQSDIAALHHFYSKHLGFPDNDSLVVLFAQVNCNGFTIEDEELSHLGSAIFPDVALMNHSCCPNVIVTYKGTLAEVRAVQEIKPGEEVFTSYIDLLYPTEDRNDRLRDSYFFTCECQECTTKDKDKAKVEIRKLSDPPKAEAIRDMVRYARNVIEEFRRAKHYKSPSELLEICELSQEKMSSVFEDSNVYMLHMMYQAMGVCLYMQDWEGALQYGQKIIKPYSKHYPLYSLNVASMWLKLGRLYMGLEHKAAGEKALKKAIAIMEVAHGKDHPYISEIKQEIESH
# Target: T1, His-tagged Ku70 (UniProt P12956 1-609)
# T1 sequence: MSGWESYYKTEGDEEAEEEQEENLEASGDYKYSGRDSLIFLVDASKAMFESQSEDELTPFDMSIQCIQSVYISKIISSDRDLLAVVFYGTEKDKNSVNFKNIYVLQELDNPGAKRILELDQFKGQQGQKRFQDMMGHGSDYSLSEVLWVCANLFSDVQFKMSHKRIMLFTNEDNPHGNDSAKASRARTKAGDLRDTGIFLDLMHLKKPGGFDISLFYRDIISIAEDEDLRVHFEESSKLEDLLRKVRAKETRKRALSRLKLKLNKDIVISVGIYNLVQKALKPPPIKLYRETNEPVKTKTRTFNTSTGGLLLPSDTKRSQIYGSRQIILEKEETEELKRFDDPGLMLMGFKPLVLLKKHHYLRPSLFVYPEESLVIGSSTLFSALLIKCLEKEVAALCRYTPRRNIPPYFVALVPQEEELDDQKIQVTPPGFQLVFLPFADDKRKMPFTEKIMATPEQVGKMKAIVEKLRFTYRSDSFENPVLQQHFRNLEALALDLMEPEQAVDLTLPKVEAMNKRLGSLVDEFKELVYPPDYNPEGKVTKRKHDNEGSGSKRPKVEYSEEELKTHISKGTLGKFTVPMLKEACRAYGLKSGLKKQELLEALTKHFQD
# Experiment: pull-down
binder,measurement,value
B1,binding result,binds
